Data as given in ChEMBL document CHEMBL1128301, “Cephalosporin derivatives of doxorubicin as prodrugs for activation by monoclonal antibody-beta-lactamase conjugates” (J Med Chem, 1995).

Amino acid sequences for entries named in this document (tags omitted).
UniProt P05364, whole entry, looked up: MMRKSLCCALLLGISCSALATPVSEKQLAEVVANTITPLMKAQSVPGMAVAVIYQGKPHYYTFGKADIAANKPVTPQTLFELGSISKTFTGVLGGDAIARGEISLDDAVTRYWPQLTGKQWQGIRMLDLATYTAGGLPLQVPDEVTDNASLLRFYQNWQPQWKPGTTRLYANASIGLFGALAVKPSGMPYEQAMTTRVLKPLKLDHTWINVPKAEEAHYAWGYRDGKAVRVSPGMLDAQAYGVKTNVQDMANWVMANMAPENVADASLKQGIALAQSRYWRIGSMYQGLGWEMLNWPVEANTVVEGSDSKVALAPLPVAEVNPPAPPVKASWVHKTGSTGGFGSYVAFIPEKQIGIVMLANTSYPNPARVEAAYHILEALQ
UniProt P62593, whole entry: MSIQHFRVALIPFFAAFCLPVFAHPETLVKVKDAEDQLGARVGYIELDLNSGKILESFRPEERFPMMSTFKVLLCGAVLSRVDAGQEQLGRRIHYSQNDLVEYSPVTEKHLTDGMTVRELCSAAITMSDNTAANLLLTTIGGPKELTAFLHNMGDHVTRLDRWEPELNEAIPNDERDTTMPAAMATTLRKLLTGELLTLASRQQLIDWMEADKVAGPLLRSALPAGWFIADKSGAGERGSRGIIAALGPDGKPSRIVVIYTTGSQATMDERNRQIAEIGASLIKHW

Tests used:
[1] = molecular target: Beta-lactamase (Enterobacter cloacae) (UniProt P05364); test: The kinetic constant(kcat) value as spectrophotometrically by using Enterobacter cloacae P99 beta-lactamase (ECIbL) enzyme as catalyst
In short: (§1)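 Spectrophotometric hydrolysis at 23 °C in PBS with 12.5 μg/mL BSA. EClbL was used at 0.1 μg/mL; BCbL and ECbL at 1.0 μg/mL. […] Initial velocities were linear over 1 min. Km and kcat came from direct linear plots, as the mean of ≥3 independent runs.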

[2] = molecular target: Beta-lactamase TEM (Escherichia coli) (UniProt P62593); test: The kinetic constant(kcat) value as spectrophotometrically by using Escherichia coli TEM-1 beta-lactamase (ECbL) enzyme as catalyst; in short: as §1
[3] = molecular target: T1, Metallo-beta-lactamase type 2 (Bacillus cereus) (UniProt P14488); test: The kinetic constant(kcat) value as spectrophotometrically by using Bacillus cereus beta-lactamase (BCbL) enzyme as catalyst; in short: as §1
T1 sequence (whole entry): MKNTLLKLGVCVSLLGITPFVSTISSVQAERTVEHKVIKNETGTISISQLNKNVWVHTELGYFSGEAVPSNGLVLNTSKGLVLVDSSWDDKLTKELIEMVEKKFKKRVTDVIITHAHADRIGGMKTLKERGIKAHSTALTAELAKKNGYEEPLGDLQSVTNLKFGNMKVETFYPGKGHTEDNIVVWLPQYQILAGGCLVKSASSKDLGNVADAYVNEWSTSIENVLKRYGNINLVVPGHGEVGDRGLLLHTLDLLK

COc1cccc2c1C(=O)c1c(O)c3c(c(O)c1C2=O)C[C@@](O)(C(=O)CO)C[C@@H]3OC1CC(NC(=O)OCC2=C(C(=O)O)N3C(=O)[C@@H](NC(=O)Cc4ccccc4)[C@H]3SC2)C(O)C(C)O1 (stereo partly drawn)
k cat [1]: 280 s⁻¹
k cat [2]: 8.4 s⁻¹
k cat [3]: 30 s⁻¹
